# Tested on: human T cells
# Test: Cytokine rescue of human T cell proliferation from MEK inhibition
# Type: cell-based
# Settings: GDC0973 or trametinib
# Method: FIG. 2A is a graph showing that IL-15 can rescue T cell functions from MEK inhibitors. A proliferation of human PBMCs activated with ConA+/−IL-2 (20 U/ml) and IL-7 (2 ng/ml) was quantified with the division index and plotted as percent of the corresponding vehicle treatment for each group. Averages from 3 independent experiments. *=P<0.05 t-test vs ConA only.
# Proliferation of CD8 T cells after 7 days is shown.
# FIG. 2D is a graph showing that human PBMCs were activated as in FIG. 2B with the indicated compounds, BKM120=2 μM. Division index of CD8 T cells as percent of vehicle alone is shown as means from 3 different donors. *=P<0.05 compared to trametinib 5000 nM, #=P<0.05 compared to trametinib 5000 nM+IL-15.
# FIG. 10 is a table that illustrates that IL-15, IL-2, and IL-7 can rescue T cell proliferation from MEK inhibition. […]
# T cell stimulation—For human T cell proliferation assays, peripheral blood lymphocytes were obtained by leukapheresis/elutriation and Miltenyi bead-purified and K562 cells expressing human CD32 were generated as previously described^41. […] Proliferation of stimulated T cells was determined 7 days later by FACS and Division Index was calculated using FlowJo software.
substance,measurement,value
IL-2: recombinant human IL-2 (Peprotech),rescue of T cell proliferation in the presence of the MEK inhibitors,able to rescue T cell proliferation
